This test is filed under the species Rattus norvegicus. Kind of test: Ratio of 5 HT inhibition to NMDA receptor binding.

Consider `CCN(CC)C(=O)[C@@]1(c2ccccc2)C[C@H]1CN` [LEVOMILNACIPRAN], for which the Selectivity index came out at 0.0013.

Values taken from ChEMBL document CHEMBL1129585, “Synthesis and biological activity of conformationally restricted analogs of milnacipran: (1S,2R)-1-phenyl-2-[(S)-1-aminopropyl]-N,N-diethylcyclopropanecarboxami de, an efficient noncompetitive N-methyl-D-aspartic acid receptor antagonist” (J Med Chem, 1996).
